Among the data in patent US20070134753A1, “Assay for determining the activity of fatty acid amide hydrolase” (priority 2002, published 2007) are IC50 values, retold here.

Protein sequences, listed by entry. Tags and fused reporters are not part of them.
UniProt P97612, whole entry: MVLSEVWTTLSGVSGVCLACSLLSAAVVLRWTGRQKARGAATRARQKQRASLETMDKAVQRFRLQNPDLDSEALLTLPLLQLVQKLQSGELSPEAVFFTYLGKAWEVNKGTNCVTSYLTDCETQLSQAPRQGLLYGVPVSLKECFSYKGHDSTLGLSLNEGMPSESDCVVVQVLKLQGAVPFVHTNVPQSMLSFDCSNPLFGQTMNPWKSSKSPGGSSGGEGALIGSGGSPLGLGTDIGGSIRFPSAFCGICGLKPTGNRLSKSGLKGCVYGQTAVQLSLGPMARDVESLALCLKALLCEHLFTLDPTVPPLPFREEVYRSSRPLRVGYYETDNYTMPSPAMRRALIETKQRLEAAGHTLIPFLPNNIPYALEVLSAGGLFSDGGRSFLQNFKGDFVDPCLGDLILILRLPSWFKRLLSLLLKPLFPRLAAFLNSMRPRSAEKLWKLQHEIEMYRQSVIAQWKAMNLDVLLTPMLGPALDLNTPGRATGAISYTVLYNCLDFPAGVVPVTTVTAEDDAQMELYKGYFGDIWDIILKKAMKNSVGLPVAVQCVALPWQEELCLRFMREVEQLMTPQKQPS
UniProt O00519, whole entry: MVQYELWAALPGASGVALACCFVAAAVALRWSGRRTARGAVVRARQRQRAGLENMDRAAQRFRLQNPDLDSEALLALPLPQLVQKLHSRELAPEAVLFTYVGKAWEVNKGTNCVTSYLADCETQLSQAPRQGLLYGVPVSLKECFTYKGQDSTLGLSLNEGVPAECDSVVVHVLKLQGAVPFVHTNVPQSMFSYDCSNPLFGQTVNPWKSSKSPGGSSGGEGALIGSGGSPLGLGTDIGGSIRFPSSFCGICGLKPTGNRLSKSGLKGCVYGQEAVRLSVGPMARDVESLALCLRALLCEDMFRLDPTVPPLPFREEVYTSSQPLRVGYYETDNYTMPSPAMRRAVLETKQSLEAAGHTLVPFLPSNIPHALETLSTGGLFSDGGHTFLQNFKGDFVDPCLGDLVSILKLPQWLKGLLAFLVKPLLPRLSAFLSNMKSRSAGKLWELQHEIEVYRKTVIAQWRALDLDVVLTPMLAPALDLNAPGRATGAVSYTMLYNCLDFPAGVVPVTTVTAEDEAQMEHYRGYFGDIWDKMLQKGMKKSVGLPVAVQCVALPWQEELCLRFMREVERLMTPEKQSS

The structures appear in SMILES notation.

Test [1] deals with FAAH (Rattus norvegicus, UniProt P97612). The conditions noted are these: read-out: Literature (ref) IC50; literature data; listed as methyl arachidonyl fluorophosphate; cited from earlier work.
The target in test [2] is FAAH (Homo sapiens, UniProt O00519). In words: FAAH charcoal filter-plate assay with 3H-anandamide in T84 membranes. The test is classed as biochemical. The conditions noted are these: room temperature 60 min, average ± S.E. of 2-5 experiments, each in triplicate.

Consider `CCCCC/C=C\C/C=C\C/C=C\C/C=C\CCCCP(=O)(F)OC` (centres unmarked), for which the IC50 on FAAH [1] was 1000 to 3000 pM; on FAAH [2], 800 pM.

The term IC50 denotes the midpoint of a concentration-inhibition curve.
